# In publication PMC11024108:
# The other results are listed elsewhere or left out.
# Target: RCC1-like G exchanging factor-like protein (UniProt Q96I51)
# Assay: cross-link between two proteins; cross-linking mass spectrometry
substance,measurement,value
"Malate dehydrogenase, mitochondrial, P40926",listed as a hit,yes
